# Data reported in publication PMC9574862, “Designing Soluble PROTACs: Strategies and Preliminary Guidelines” (Journal of Medicinal Chemistry, 2022).
# Tests used:
# physchem = conditions: pH 7
# Procedure: PROTAC experimental solubility was first correlated with lipophilicity descriptors (log P is implemented in the general solubility equation (GSE)[27]). As described by some of us,[16] BRlogD represents a validated,[28] very useful and straightforward chromatographic descriptor for the logarithm of the distribution coefficient in the n-octanol/water system (log D) of neutral and cationic bRo5 molecules.
# The mobile phase consisted of an isocratic solution of 20 mM ammonium acetate (pH 7.0) and acetonitrile, 40–60%, respectively (v/v).[16] Samples were dissolved in buffer/ACN and injected into the XBridge column at a flow rate of 1.0 mL/min at 30 °C. Retention times were determined in duplicate, and the dead time, t0, was recorded as the baseline disturbance.
# [1] = pH 7.0, extrapolated to 0% acetonitrile
# Procedure: The logarithm of the capacity factor of an IAM column system, extrapolated at 100% water (log kw^IAM), is also an experimental descriptor of the lipophilicity of drugs since it mimics the interaction between the polar heads of the membrane phospholipids and the drug in solution.[29]
# The mobile phase consisted of a solution of 20 mM ammonium acetate (pH 7.0) in a mixture with acetonitrile at various percentages (from 10 to 50%, v/v). Samples were dissolved in buffer/ACN and injected into the previously mentioned IAM column at a flow rate of 1.0 mL/min at 30 °C. Chromatographic retention data were determined in duplicate for the different mobile phase conditions. Data were recorded as log k′ (capacity factor k′ = [tR – t0]/t0), where tR and t0 are the retention times of the sample and a nonretained molecule (citric acid), respectively. Thus, log kw^IAM values were calculated by an extrapolation method of the experimental equation, at 0% acetonitrile. Moreover, five gold standard compounds (caffeine, carbamazepine, ketoprofen, theobromine, and toluene) were checked daily.
# [2] = Thermodynamic solubility, shake-flask, 10 mM PBS (0.15 M KCl) pH 7, 25 °C, 1 h, HPLC-UV; conditions: pH 7, aqueous buffer, thermodynamic from solid, Exp.LogS, PROTAC pairs and building blocks
# Procedure: Its measurement only requires an initial DMSO stock solution which is precipitated by the addition of an aqueous phase.[23],[24] Here, we measured thermodynamic solubility, often determined in late lead optimization, which efficiently considers the solubility value when the equilibrium with the stable phase or polymorph has been reached.
# Solubility was determined in 10 mM PBS (0.15 M KCl) at pH 7, 25 °C. A 1–2 mg sample of each molecule was added to the same quantity (1–2 mL) of the mentioned buffer to obtain 1 mg/mL solutions in the vial. Samples were then submitted to 25 °C and magnetic stirring (500 rpm) for 1 h. […] The amount of dissolved compound in each sample was then quantified, in duplicate, via HPLC using ultraviolet (UV) spectrometric detection.
# Variable volumes of pure DMSO (0–100 μL) were added separately to small and defined (1 mg) quantities of each compound to obtain clear solutions. […] Calibration points were then measured via HPLC-UV.
# The mobile phase consisted of a solution of acetonitrile (ACN) and 20 mM ammonium acetate buffer (AAB), pH 7, freshly prepared. A 10 μL volume of each sample (volume of injection) was injected at an isocratic 1 mL/min flow rate analyzed at 30 °C (oven temperature). […]
# Injections were performed in duplicate for each molecule’s calibration points. […] Samples were then injected in duplicate, and the AUC averages and standard deviations were calculated. […]
structure (smiles),measurement,setting,value
COC(=O)C[C@@H]1N=C(c2ccc(Cl)cc2)c2c(sc(C(=O)O)c2C)-n2c(C)nnc21 [PROTAC BET-binding moiety 2],chromatographic logD,physchem,-0.03
same,Log kw IAM,[1],0.53
same,solubility at 1 h,[2],> 2240 µM
